Measurements reported in US20220402950A1, “SUBSTITUTED BENZIMIDAZOLES AS PAD4 INHIBITORS” (BRISTOL-MYERS SQUIBB COMPANY, priority 2018, published 2022).

Sequences of proteins named here, by UniProt entry; tags and fusion partners are left off.
UniProt Q9UM07, whole entry: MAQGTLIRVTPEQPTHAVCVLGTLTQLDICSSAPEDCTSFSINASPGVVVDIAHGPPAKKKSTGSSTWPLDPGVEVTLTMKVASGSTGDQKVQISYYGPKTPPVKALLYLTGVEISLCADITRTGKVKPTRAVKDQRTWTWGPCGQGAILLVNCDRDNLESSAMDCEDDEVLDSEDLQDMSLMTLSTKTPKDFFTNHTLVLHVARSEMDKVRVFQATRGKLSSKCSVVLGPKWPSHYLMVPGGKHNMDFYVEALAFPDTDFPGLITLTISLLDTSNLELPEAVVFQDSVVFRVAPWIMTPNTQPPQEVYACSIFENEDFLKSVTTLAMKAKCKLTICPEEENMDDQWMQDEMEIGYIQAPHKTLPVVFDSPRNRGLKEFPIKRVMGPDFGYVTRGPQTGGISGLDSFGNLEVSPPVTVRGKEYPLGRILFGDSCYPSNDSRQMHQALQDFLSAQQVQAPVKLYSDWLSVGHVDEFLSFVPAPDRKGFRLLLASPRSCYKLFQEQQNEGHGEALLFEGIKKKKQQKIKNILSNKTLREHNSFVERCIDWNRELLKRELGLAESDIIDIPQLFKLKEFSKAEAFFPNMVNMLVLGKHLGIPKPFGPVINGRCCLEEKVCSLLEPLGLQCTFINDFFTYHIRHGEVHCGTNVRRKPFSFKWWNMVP

Target: human PAD4 (hPAD4) (Homo sapiens, UniProt Q9UM07)
Assay: RFMS Human PAD4 Functional Assay
Format: biochemical
Conditions: 5 nM hPAD4, 250 μM BAEE
Description: RFMS Human PAD4 Functional Assay:
Compounds were solubilized in 100% DMSO to achieve a 10 mM compound concentration. Compound stock solutions were stored at RT. A series of dilutions were prepared in DMSO and mixed 8 times with 20 μL mixing volume. Final top concentration of compound in the assay is 50 μM.
0.13 μL of compound solution was added to 13 μL of 10 nM PAD4 in assay buffer. After 30 min 13 μl of 500 μM of BAEE was added in 25 mM hepes, pH 7.5, 5 mM NaCl, 1 mM DTT, 0.2 mg/ml BSA, 0.01% CHAPS, 50 μM Calcium, 5 μM TPEN was added and the reaction incubated for 90 min at 37° C. The enzymatic reaction was quenched by addition of 15 μl of 6.1N TCA, 100% Final Concentration is 20%, 35 μl of 8.5 mM phenyl glyoxal (final concentration 4 mM) is then added and the reaction is incubated for 30 min at 37° C.
After 30 minutes the plates are spun down to remove all precipitate. The enzyme reaction was quenched with an equal volume of methanol containing internal standard (modified citrulline). Samples were loaded onto the Rapid Fire RF300 system (Agilent) wherein they were first sipped for 1000 ms and then directly loaded to a C18 separations cartridge using a mixture of acetonitrile containing 0.01% formic acid for 3000 ms desalting. The flow rate of the mobile phase was 1.5 ml/min. […]

| IC50 (hPAD4 RFMS IC50, human PAD4, rapid-fire mass spectrum (RFMS) assay) [nM] | Compound | IC50 (human PAD4, rapid-fire mass spectrum (RFMS) assay, read-out: hPAD4 RFMS IC50) [nM] |
| --- | --- | --- |
|  | ((1R,4R,7R)-7-amino- 2- azabicyclo[2.2.1]heptan- 2-yl)(2-(7-chloro-1- (cyclopropylmethyl)- 1H-indol-2-yl)-7- methoxy-1-methyl-1H- benzo[d]imidazol-5- yl)methanone [Example 144] | 195 |
| 195 | COc1cc(C(=O)N2CC3CCC2[C@@H]3N)cc2nc(-c3cc4cccc(Nc5ccccn5)c4n3CC3CC3)n(C)c12 (stereo partly drawn) [Example 168, ((7R)-7-amino-2-azabicyclo[2.2.1]heptan-2-yl)(2-(1-(cyclopropylmethyl)-7-(pyridin-2-ylamino)-1H-indol-2-yl)-7-methoxy-1-methyl-1H-benzo[d]imidazol-5-yl)methanone] |  |

Where two headings read alike, the source gives them in different places.
